In PubChem BioAssay AID1775 (NMMLSC, 2009):
Only a part is listed here, and it is no random draw. Some salts or complexes appear as unconnected parts, following the source record. Calls of active or inactive are those of the source. Rule as the data show it: active = fluorescence above about 47; inactive = the rest.

assay: green autofluorescence of compounds with avidin beads – biophysical, 488/530 nm, flow cytometry, artefact control, profiling panel (AID 1775); conditions: compound fluorescence 488/530 nm, at 10 µM, hits give high values

| Structure (SMILES) | fluorescence (KMESF) |
| --- | --- |
| Cc1nc2ccc3ccccc3c2s1.O=[N+]([O-])c1cc([N+](=O)[O-])c(O)c([N+](=O)[O-])c1 | inactive: 10 |
| O=[N+]([O-])c1cc([N+](=O)[O-])c(-n2nnc3ccccc32)c([N+](=O)[O-])c1 | inactive: 7 |
| CP(=O)(Nc1ccc(SC(F)(F)F)cc1)Oc1ccccc1 (configuration not stated) | inactive: 5 |
| CCCOc1ccc(NP(C)(=O)Oc2ccc(Cl)cc2)cc1 (configuration not stated) | inactive: 18 |
| COc1ccccc1OP(C)(=O)Nc1c(C)cccc1C (configuration not stated) | inactive: 9 |
| CN1CCCCC1COC(=O)C1(O)c2ccccc2CCc2ccccc21 (configuration not stated) | inactive: 15 |
| CCOC(=O)C(CC)C1=NC(C)(C)Cc2ccccc21.O=[N+]([O-])c1cc([N+](=O)[O-])c(O)c([N+](=O)[O-])c1 (configuration not stated) | inactive: 3 |
| O=[N+]([O-])c1cc([N+](=O)[O-])c(Nc2nnnn2CCO)c([N+](=O)[O-])c1 | inactive: 8 |
| CC1=NCCc2c1[nH]c1ccccc21.O=[N+]([O-])c1cc([N+](=O)[O-])c(O)c([N+](=O)[O-])c1 | inactive: 7 |
| O=C(O)c1cccc(Nc2c([N+](=O)[O-])cc([N+](=O)[O-])cc2[N+](=O)[O-])c1 | inactive: 7 |
| CP(=O)(Nc1cccc(Br)c1)Oc1ccccc1 (configuration not stated) | inactive: 12 |
| Cc1cc(C)cc(OP(C)(=O)Nc2ccccn2)c1 (configuration not stated) | inactive: 15 |
| Cc1ccc(C)c(NP(C)(=O)Oc2ccccc2)c1 (configuration not stated) | inactive: 0 |
| Cc1cc(C)cc(OP(C)(=O)Nc2ccc(C)cc2C)c1 (configuration not stated) | inactive: 14 |
| CCOC(=O)c1ccc(NP(C)(=O)Oc2cc(C)cc(C)c2)cc1 (configuration not stated) | inactive: 14 |
| COc1ccccc1OP(C)(=O)Nc1cccc(Br)c1 (configuration not stated) | inactive: 9 |
| CCN(CC)CCCOC(=O)C(O)(c1ccccc1)c1ccccc1 | inactive: 11 |
| COc1ccc(OP(C)(=O)Nc2cccc(F)c2)cc1 (configuration not stated) | inactive: 9 |
| COc1ccccc1OP(C)(=O)Nc1cc(Cl)ccc1C (configuration not stated) | inactive: 11 |
| Cc1cc(C)cc(OP(C)(N)=O)c1 (configuration not stated) | inactive: 11 |
| CCOC(=O)c1ccc(NP(C)(=O)Oc2ccccc2)cc1 (configuration not stated) | inactive: 6 |

| Structure (SMILES) | fluorescence (KMESF) |
| --- | --- |
| Cc1ccc(NP(C)(=O)Oc2ccccc2)c(C)c1 (configuration not stated) | inactive: 10 |
| COc1ccccc1OP(C)(=O)Nc1ccc(C)cc1 (configuration not stated) | inactive: 18 |
| Cc1cccc(C)c1OP(C)(N)=O (configuration not stated) | inactive: 11 |
| CC(C)(C)c1ccc(OP(C)(=O)Nc2ccc(SC(F)(F)F)cc2)cc1 (configuration not stated) | inactive: 12 |
| O=[N+]([O-])c1ccc2c(c1)C=Nc1ccccc1O2 | inactive: 9 |
| COc1ccccc1OP(C)(=O)Nc1ccccc1 (configuration not stated) | inactive: 7 |
| CP(=O)(Nc1ccccc1Br)Oc1ccccc1 (configuration not stated) | inactive: 8 |
| CP(=S)(Nn1cnnc1)Oc1ccccc1 (configuration not stated) | inactive: 5 |
| CP(=O)(Nc1ccccn1)Oc1ccc(Cl)cc1 (configuration not stated) | inactive: 37 |
| CCOP(C)(=S)SCC(=O)NC(C)C(=O)O (configuration not stated) | inactive: 12 |
| CCOC(=O)c1ccc(NP(C)(=O)Oc2ccc(OC)cc2)cc1 (configuration not stated) | inactive: 16 |
| Cc1cc(C)cc(OP(C)(=O)Nc2ccc(SC(F)(F)F)cc2)c1 (configuration not stated) | inactive: 5 |
| CCc1ccc(OP(C)(=O)N2CCN(c3ccc([N+](=O)[O-])cc3)CC2)cc1 (configuration not stated) | inactive: 7 |
| CP(=O)(NC(=O)Nc1ccccc1)Oc1ccccc1 (configuration not stated) | inactive: 7 |
| CP(=O)(Oc1ccccc1)OC(c1ccccc1)C(F)(F)F (configuration not stated) | inactive: 10 |
| Cc1cccc(C)c1OP(C)(=O)Nc1ccc(SC(F)(F)F)cc1 (configuration not stated) | inactive: 11 |
| CP(=O)(Nc1ccc(SC(F)(F)F)cc1)Oc1ccc(Cl)cc1 (configuration not stated) | inactive: 9 |
| CN(C)C(=O)c1c([N+](=O)[O-])cc([N+](=O)[O-])cc1[N+](=O)[O-] | inactive: 9 |
| CP(=O)(Nc1ccc(Cl)cc1)Oc1ccc(F)cc1 (configuration not stated) | inactive: 10 |
| CC(C)(C)c1ccc(OP(C)(=O)O)cc1 | inactive: 26 |
| COc1ccccc1OP(C)(=O)Nc1ccccc1Br (configuration not stated) | inactive: 28 |

| Structure (SMILES) | fluorescence (KMESF) |
| --- | --- |
| CCc1ccc(OP(C)(=O)Nc2cccnc2)cc1 (configuration not stated) | inactive: 12 |
| CP(=O)(Oc1ccccc1)N1CCOC1=O (configuration not stated) | inactive: 8 |
| O=C(OCCCN1CCCC1)C(O)(c1ccccc1)C1CCCCC1 (configuration not stated) | inactive: 17 |
| COc1ccc(OP(C)(=O)Nc2ccc(Br)cc2)cc1 (configuration not stated) | inactive: 9 |
| CCN(CC)CC(O)COC(=O)C(O)(c1ccccc1)C1CCCCC1 (configuration not stated) | inactive: 6 |
| CP(=O)(OC12CC3CC(CC(C3)C1)C2)OC12CC3CC(CC(C3)C1)C2 | inactive: 12 |
| CCOC(=O)c1ccc(NP(C)(=O)Oc2ccc(Cl)cc2)cc1 (configuration not stated) | inactive: 2 |
| CP(=O)(OCCOc1ccccc1)OCCOc1ccccc1 | inactive: 14 |
| CP(=O)(Nc1ccc(Cl)cc1Cl)Oc1ccccc1 (configuration not stated) | inactive: 9 |
| Cc1nc2ccc3ccccc3c2o1.O=[N+]([O-])c1cc([N+](=O)[O-])c(O)c([N+](=O)[O-])c1 | inactive: 11 |
| COc1ccc(OP(C)(=O)Nc2ccccc2Br)cc1 (configuration not stated) | inactive: 13 |
| COc1ccccc1OP(C)(=O)Nc1ccc(C)c(C)c1 (configuration not stated) | inactive: 6 |
| Cc1cc(C)cc(OP(C)(=O)Nc2cccc(C(F)(F)F)c2)c1 (configuration not stated) | inactive: 13 |
| CCc1ccc(OP(C)(=O)O)cc1 | inactive: 32 |
| COc1ccccc1OP(C)(=O)Nc1ccc(C)cc1C (configuration not stated) | inactive: 17 |
| CP(=O)(Nc1ccccn1)Oc1ccccc1 (configuration not stated) | inactive: 9 |
| O=[N+]([O-])c1cc([N+](=O)[O-])c(Nc2ccccn2)c([N+](=O)[O-])c1 | inactive: 10 |
| Cc1c(NP(C)(=O)Oc2ccc(C(C)C)cc2)c(=O)n(-c2ccccc2)n1C (configuration not stated) | inactive: 11 |
| CN(C)CCOC(=O)C(O)(c1ccccc1)C1CCCC1 (configuration not stated) | inactive: 4 |
| COc1ccc(OP(C)(=O)Nc2ccccn2)cc1 (configuration not stated) | inactive: 4 |
| COc1ccccc1OP(C)(=O)Nc1ccc(Br)cc1 (configuration not stated) | inactive: 35 |

| Structure (SMILES) | fluorescence (KMESF) |
| --- | --- |
| COc1ccc2c(c1O)-c1c(O)c(OC)cc3c1[C@H](C2)[N+](C)(C)CC3.O=[N+]([O-])c1cc([N+](=O)[O-])c([O-])c([N+](=O)[O-])c1[O-] | inactive: 10 |
| O=C(OCCN1CCN(CCOCc2ccccc2)CC1)C(O)(c1ccccc1)c1ccccc1 | inactive: 5 |
| O=C(OC1CN2CCC1CC2)c1ccc([N+](=O)[O-])cc1 (configuration not stated) | inactive: 8 |
| CC(C)c1ccc(OP(C)(=O)Nc2ccc(SC(F)(F)F)cc2)cc1 (configuration not stated) | inactive: 3 |
| CP(=O)(Nc1ccccc1F)Oc1ccccc1 (configuration not stated) | inactive: 9 |
| CCCCCOc1ccc(NP(C)(=O)Oc2ccc(Cl)cc2Cl)cc1 (configuration not stated) | inactive: 6 |
| CP(=O)(Nc1ccccc1)Oc1ccc(F)cc1 (configuration not stated) | inactive: 37 |
| COc1ccc(OP(C)(=O)Nc2ccc(SC(F)(F)F)cc2)cc1 (configuration not stated) | inactive: 8 |
| CCOC(=O)c1ccc(NP(C)(=O)Oc2ccc(F)cc2)cc1 (configuration not stated) | inactive: 5 |
| Cc1cc(-c2cccc3ccccc23)c(C)cn1.O=[N+]([O-])c1cc([N+](=O)[O-])c(O)c([N+](=O)[O-])c1 | inactive: 20 |
| O=[N+]([O-])c1cc([N+](=O)[O-])c(NCC2CCS(=O)(=O)C2)c([N+](=O)[O-])c1 (configuration not stated) | inactive: 8 |
| O=[N+]([O-])c1ccc(OP2(=O)COCCO2)cc1 (configuration not stated) | inactive: 7 |
| COc1ccc(NP(C)(=O)Oc2ccccc2OC)cc1 (configuration not stated) | inactive: 5 |
| CN(C)CCOC(=O)C(O)(c1ccccc1)C1CCCCC1 (configuration not stated) | inactive: 39 |
| COc1ccc(OP(C)(=O)Nc2cccc(Br)c2)cc1 (configuration not stated) | inactive: 33 |
| Cc1ccccc1NP(C)(=O)Nc1ccccc1C | inactive: 16 |
| CP(=O)(Nc1ccc2c(c1)OCCO2)Oc1ccccc1 (configuration not stated) | inactive: 18 |
| CCOP(C)(=S)SCC(=O)NC(C)(CC)C(=O)O (configuration not stated) | inactive: 15 |
| CP(=O)(Nc1ccc(SC(F)(F)F)cc1)Oc1ccc(F)cc1 (configuration not stated) | inactive: 6 |
